Data from patent US20230000876A1, “TREATING CANCERS WITH A CYCLIN-DEPENDENT KINASE INHIBITOR” (Nuvation Bio Inc., priority 2021, published 2023).

Tested on: breast cancer PDX model harboring ESR1^Y537S mutation
Assay: Breast cancer PDX model harboring ESR1 Y537S mutation

## CC(C)N1CCOc2c(F)cc(-c3nc(Nc4ccc(C5CCN(C)CC5)cn4)ncc3F)cc21 [Compound (I), 5-fluoro-4-(8-fluoro-4-isopropyl-3,4-dihydro-2H-benzo[b][1,4]oxazin-6-yl)-N-(5-(1-methylpiperidin-4-yl)pyridin-2-yl)pyrimidin-2-amine]
Group 5: Compound (I) 30 mg/kg PO qd, Day 0
  Tumor Volume (Mean ± SEM): 124 ± 3 mm^3
Group 5: Compound (I) 30 mg/kg PO qd, Day 4
  Tumor Volume (Mean ± SEM): 115 ± 9 mm^3
Group 5: Compound (I) 30 mg/kg PO qd, Day 6
  Tumor Volume (Mean ± SEM): 120 ± 8 mm^3
Group 5: Compound (I) 30 mg/kg PO qd, Day 11
  Tumor Volume (Mean ± SEM): 102 ± 12 mm^3
Group 5: Compound (I) 30 mg/kg PO qd, Day 14
  Tumor Volume (Mean ± SEM): 137 ± 24 mm^3
Group 5: Compound (I) 30 mg/kg PO qd, Day 18
  Tumor Volume (Mean ± SEM): 173 ± 23 mm^3
Group 5: Compound (I) 30 mg/kg PO qd, Day 21
  Tumor Volume (Mean ± SEM): 181 ± 24 mm^3
Group 5: Compound (I) 30 mg/kg PO qd, Day 26
  Tumor Volume (Mean ± SEM): 199 ± 25 mm^3
Group 5: Compound (I) 30 mg/kg PO qd, Day 29
  Tumor Volume (Mean ± SEM): 237 ± 30 mm^3
Group 5: Compound (I) 30 mg/kg PO qd, Day 32
  Tumor Volume (Mean ± SEM): 245 ± 28 mm^3
Compound (I) 30 mg/kg PO QD, fulvestrant 3 mg/dose SC q7d, RAD1901 30 mg/kg PO QD, vehicle 2425 mm^3
  Tumor volume at the end of the study: 245 mm^3

## CC(=O)c1c(C)c2cnc(Nc3ccc(N4CCNCC4)cn3)nc2n(C2CCCC2)c1=O [Palbociclib, palbociclib]
Group 4: Palbociclib 25 mg/kg PO qd, Day 0
  Tumor Volume (Mean ± SEM): 124 ± 3 mm^3
Group 4: Palbociclib 25 mg/kg PO qd, Day 4
  Tumor Volume (Mean ± SEM): 146 ± 11 mm^3
Group 4: Palbociclib 25 mg/kg PO qd, Day 6
  Tumor Volume (Mean ± SEM): 200 ± 25 mm^3
Group 4: Palbociclib 25 mg/kg PO qd, Day 11
  Tumor Volume (Mean ± SEM): 447 ± 57 mm^3
Group 4: Palbociclib 25 mg/kg PO qd, Day 14
  Tumor Volume (Mean ± SEM): 632 ± 65 mm^3
Group 4: Palbociclib 25 mg/kg PO qd, Day 18
  Tumor Volume (Mean ± SEM): 914 ± 69 mm^3
Group 4: Palbociclib 25 mg/kg PO qd, Day 21
  Tumor Volume (Mean ± SEM): 1161 ± 122 mm^3
Group 4: Palbociclib 25 mg/kg PO qd, Day 26
  Tumor Volume (Mean ± SEM): 1551 ± 188 mm^3
Group 4: Palbociclib 25 mg/kg PO qd, Day 29
  Tumor Volume (Mean ± SEM): 1667 ± 185 mm^3

## CCNCCc1ccc(CN(CC)c2cc(OC)ccc2[C@@H]2CCc3cc(O)ccc3C2)cc1 [RAD1901, elacestrant]
Group 3: RAD1901 30 mg/kg PO qd, Day 0
  Tumor Volume (Mean ± SEM): 124 ± 3 mm^3
Group 3: RAD1901 30 mg/kg PO qd, Day 4
  Tumor Volume (Mean ± SEM): 123 ± 10 mm^3
Group 3: RAD1901 30 mg/kg PO qd, Day 6
  Tumor Volume (Mean ± SEM): 138 ± 16 mm^3
Group 3: RAD1901 30 mg/kg PO qd, Day 11
  Tumor Volume (Mean ± SEM): 199 ± 28 mm^3
Group 3: RAD1901 30 mg/kg PO qd, Day 14
  Tumor Volume (Mean ± SEM): 305 ± 45 mm^3
Group 3: RAD1901 30 mg/kg PO qd, Day 18
  Tumor Volume (Mean ± SEM): 382 ± 58 mm^3
Group 3: RAD1901 30 mg/kg PO qd, Day 21
  Tumor Volume (Mean ± SEM): 482 ± 78 mm^3
Group 3: RAD1901 30 mg/kg PO qd, Day 26
  Tumor Volume (Mean ± SEM): 574 ± 76 mm^3
Group 3: RAD1901 30 mg/kg PO qd, Day 29
  Tumor Volume (Mean ± SEM): 696 ± 100 mm^3
Group 3: RAD1901 30 mg/kg PO qd, Day 32
  Tumor Volume (Mean ± SEM): 801 ± 111 mm^3
